Experimental data taken from patent US5711020A (priority 1996, dated 1998).

Columns and labels:
[1] = tested on: TNT-reducing protein extract; experiment: TNT reduction kinetics with protein extract and aquifer material
Experimental: The reducing activity of a protein extract isolated from a high organic carbon sediment was analyzed after introduction into either an aqueous solution or a low organic carbon content system such as aquifer material. One ppm TNT solution was mixed with 0.5 g/ml aquifer sample as the control. One ppm TNT solution was mixed with 15 μg/ml of the TNT-reducing protein extract isolated from fraction 18 of FIG. 2 as described above and incubated for 24 hours. The purpose of incubation was to let the substrate, TNT, associate with the denatured subunits to recover the original active form of the enzyme. This procedure was followed by the "Microbial Metabolism of Aromatic Nitriles" study described by David B. Harper, Biochem. J. 167:685-692 (1977). After the incubation period, the incubated sample was spiked with concentrated TNT solution so that the final TNT concentration was 1 ppm.
To determine whether the protein extract would bind to aquifer material and retain activity in water, 15 μg/ml of protein extract was incubated with 0.5 g/ml aquifer sample for 24 hours before the TNT solution was added. The aquifer material had been collected from Columbus Air Force Base in Georgia. The organic carbon content in this aquifer was 0,027%.
Half-life of TNT in the combined aquifer material and protein extract system is smaller than that in protein extract system alone.

[2] = cited from earlier work
[3] = TNT reduction in anaerobic sediment samples, effect of initial concentration
Experimental: To monitor the disappearance of TNT and formation of its products in anaerobic sediment samples, TNT and its reduced products were extracted from water/sediment samples with acetonitrile (Burdick and Jackson, Musegon, Mich.) and analyzed by HPLC equipped with a UV detector as follows. The solvent was 30% water (pH 10) and 70% acetonitrile at a flow rate of 0.7 ml/min. Absorbance was detected at a wavelength of 238 nm. The dinitro and monoamino toluene isomers (Peak 2) eluted at same retention time, however, these isomers can be separated and identified by GC/MS. The two diamino, mononitrotoluene isomers (Peak 3) also co-eluted. Triaminotoluene (Peak 4) eluted with the solvent front. TNT (Peak 1) and standards for identification of its reduced products were obtained from the U.S. Army Research, Development, and Engineering Center, Picatinny Arsenal, N.J.
Sediments were collected from a stagnant, slow moving stream near Athens, Ga. These sediments were passed through a 1mm sieve. Aliquots of 5 ml of sediment slurries were transferred to a series of 15-ml screw cap test tubes and kept under anaerobic condition. The sediment/water ratio was 0.12, pH was 6.5 and Eh value was -368 my (vs. Ag/AgCl). A certain amount of concentrated TNT solutions were spiked into sediment samples to achieve three concentrations of TNT. At given time intervals, one tube of sample from the series was extracted by adding 1 ml of acetonitrile, vortex-mixing for 1 min and centrifuging. The supernatant was transfer centrifuged again and analyzed. […] The rate of change of TNT concentration is a constant when the concentration of TNT is 125 ppm or greater. Beyond this concentration, the reaction proceeds at a rate independent of both concentrations of TNT and sediment. Therefore, at high TNT concentration, the reaction rate is zero order. When the concentration of TNT was decreased to 2.5 ppm, the concentration of TNT decreased exponentially with time. Plotting ln(c/c0) against time by using least-square regression method, a straight line was obtained with the value of r^2 equal to 0.99. This reaction of TNT is a first order reaction and half-life is 90 min. With 0.25 ppm TNT, the reduction rate was fast. After a certain elapsed time, the concentration change slowed down.

[4] = TNT reduction in aqueous 1% iron powder without reducing agent; conditions: 1.6 ppm TNT in distilled water, 1% (w/v) iron powder, anaerobic, no reducing agent
Experimental: The effects of the addition of iron to the system was analyzed. 1.6 ppm TNT in distilled water was combined with 1% (w/v) iron powder under anaerobic conditions. […] The TNT reduction rate was increased by shaking the reactor to enhance the mass transfer. It should be noted that TNT reduced products were not observed in this study, most likely because the reaction rate of TNT reduced products on the metal surface was extremely fast.

[5] = tested on: purified TNT-reducing agent; experiment: Reducing agents kinetics with purified TNT-reducing agent; conditions: 1 μg of protein, 10^-6 M TNT
[6] = cited from earlier work; remark: listed apart in the source

## Cc1c([N+](=O)[O-])cc([N+](=O)[O-])cc1[N+](=O)[O-]
[1]; 1 ppm TNT in 0.5 g/ml aquifer material alone (control)
  t1/2: 70.6 h
[1]; 1 ppm TNT in 0.5 g/ml aquifer material plus 15 μg/ml protein extract
  t1/2: 4.2 h
[1]; 1 ppm TNT plus 15 μg/ml protein extract
  t1/2: 6.5 h
[2]
  time stable on soil surfaces in the environment: ≤ 40 years
[3]; TNT 0.25 ppm
  reaction order: second order
[3]; TNT 2.5 ppm
  reaction order: first order
[3]; TNT 125 ppm or greater
  reaction order: zero order
[3]; initial TNT 2.5 ppm, sediment/water ratio 0.12, pH 6.5, Eh -368 mv (vs. Ag/AgCl)
  half-life: 90 min
[4]
  t1/2: 1.14 days
[5]
  time in which protein reduces the compound: approximately 15 minutes
[6]
  saturated concentration in water: about 125 ppm

Only a part of the results on these compounds is given; other tests are left out.
